Literature values in patent US9222055B2, “High intensity fragrances” (TAKASAGO INTERNATIONAL CORPORATION, priority 2009, dated 2015).

Conditions: Table 1

SMILES: COc1ccc(CO)cc1 [ANISIC ALCOHOL, anisic alcohol]
- Readily biodegradable: Yes
